This is an account of results in PubChem BioAssay AID1714 (Vanderbilt High Throughput Screening Facility, 2009).

The entries are a selection whose mix differs from that of the whole data set. Records with an inconclusive call do not appear. The source made the active and inactive calls.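 The calls were made as follows: active = thallium entry rate above the same plate's blocked-transporter control wells by more than 3 SD; inconclusive = the two repeat wells disagree; inactive = the rest.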

A short description of this test: KCC2 HEK cell Tl+ influx single-dose follow-up with bumetanide block (AID 1714).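 Also: raw slope of fluorescence over initial fluorescence between 10 and 20 s after thallium.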 As to conditions: HEK293-KCC2 + bumetanide/ouabain, thallium flux FluoZin2; at 10 µM; active compounds read high. Summed up: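 Test system: HEK cells expressing the K-Cl cotransporter KCC2. Timing: overnight culture 37 °C, dye loading 48 min. Technique: FluoZin2-AM (0.5 µM) fluorescence, 480 nm ex/540 nm em, 1 Hz kinetic imaging. Repeats: duplicates.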
As for `O=c1c2cc([N+](=O)[O-])ccc2[nH]c2c([N+](=O)[O-])cc([N+](=O)[O-])cc12`, the normalized thallium flux is active: 0.0476.

Turning to `C[N+]1=C2C=CC=CC=C2SC12C([N+](=O)[O-])=CC([N+](=O)[O-])=C[C-]2[N+](=O)[O-]` (configuration not stated), the normalized thallium flux was active: 0.0186.
